≈ marks a conversion by molar mass, not a printed value.
Legend:
[1] = in vivo; details: human, plasma, iv
[2] = cited from earlier work
[3] = physchem; details: water, pH 7.4, aqueous buffer
[4] = cited from earlier work; remark: listed apart in the source

SMILES | clearance [1] [mL/min] | Half-life ([2]; in vivo) [h] | CL(L/hr) (iv) [2] [L/h] | solubility [3] [µg/mL] | Water solubility (mg/mL) neutral pH [4] [mg/mL] | equilibrium concentration (pH 6.8 (FIG. 6 projection)) | aqueous solubility (pH 7.4) [µg/mL] | Bioavailability oral ([2]; oral) [%]
Cc1cc2c(s1)Nc1ccccc1N=C2N1CCN(C)CC1 [Olanzapine, olanzapine] | 350 | 45 | 21 | – | – | – | – | –
Cc1nc2n(c(=O)c1CCN1CCC(c3noc4cc(F)ccc34)CC1)CCCC2 [Risperidone, risperidone] | 47.2 | – | 2.84 | ~420 (≈ 1020 µM) | 0.48 | about 1.5 mg/mL | ~420 (≈ 1020 µM) | 65

From patent publication US10974036B2, “Implantable device for long-term delivery of drugs” (Delpor, Inc., priority 2009, dated 2021)
